In ChEMBL document CHEMBL4482311, “Modulators of Prostate-Specific G-Protein Receptor (PSGR/OR51E2) and Methods of Using Same” (2018):

Biological target: T1, Olfactory receptor 51E2 (Homo sapiens) (UniProt Q9H255)
T1 sequence (whole entry): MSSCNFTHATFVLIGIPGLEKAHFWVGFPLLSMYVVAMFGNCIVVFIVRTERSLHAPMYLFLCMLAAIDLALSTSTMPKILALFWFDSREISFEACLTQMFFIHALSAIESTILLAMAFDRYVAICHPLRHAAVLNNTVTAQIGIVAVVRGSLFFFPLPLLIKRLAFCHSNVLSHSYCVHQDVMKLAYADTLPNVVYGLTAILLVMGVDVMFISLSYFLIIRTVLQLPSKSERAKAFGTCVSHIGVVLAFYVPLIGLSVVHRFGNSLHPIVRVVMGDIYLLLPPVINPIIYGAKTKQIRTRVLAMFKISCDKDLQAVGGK
Assay: Antagonist activity at PSGR/OR51E2 (unknown origin) expressed in human Hana3A cells co-transfected with CRE-Luc assessed as reduction in 19-OH-AD-induced response by luciferase reporter gene assay
Format: functional, cell-based

inhibition: Active
SMILES: CC1=C(/C=C/C(C)=C/C=C/C(C)=C\C(=O)O)C(C)(C)CCC1

The source made the active and inactive calls. The calls are words filed in the database; no cut-off is given here.
